Measured values taken from PubChem BioAssay (NCI).
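Tested at 5 concentrations; 48 h exposure; 96-well plates; endpoints linearly interpolated, else capped at highest concentration. GI50: concentration for 50% inhibition of growth. TGI: total growth inhibition.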

Tests used:
Experiment in all cases: NCI anticancer screen, dose series, 48 h
[1] = system: A498 renal
[2] = system: NCI-H23 lung
[3] = system: 786-0 renal
[4] = system: SW-620 colon
[5] = system: OVCAR-8 ovarian
[6] = system: HS 578T breast
[7] = system: SF-268 CNS
[8] = system: SF-295 CNS
[9] = system: SR leukemia
[10] = system: MALME-3M melanoma
[11] = system: MCF7 breast
[12] = system: MDA-MB-231 breast
[13] = system: RXF 393 renal
[14] = system: CAKI-1 renal
[15] = system: U251 CNS
[16] = system: SK-OV-3 ovarian
[17] = system: SF-539 CNS
[18] = system: HL-60(TB) leukemia
[19] = system: SK-MEL-28 melanoma
[20] = system: NCI-H522 lung
[21] = system: OVCAR-4 ovarian
[22] = system: CCRF-CEM leukemia
[23] = system: NCI/ADR-RES ovarian
[24] = system: SNB-19 CNS
[25] = system: SNB-75 CNS
[26] = system: MDA-MB-435
[27] = system: UACC-257 melanoma
[28] = system: HCT-116 colon
[29] = system: NCI-H226 lung
[30] = system: UACC-62 melanoma
[31] = system: NCI-H322M lung
[32] = system: TK-10 renal
[33] = system: IGROV1 ovarian
[34] = system: KM12 colon
[35] = system: OVCAR-3 ovarian
[36] = system: MDA-N
[37] = system: OVCAR-5 ovarian
[38] = system: BT-549 breast
[39] = system: M14 melanoma
[40] = system: NCI-H460 lung
[41] = system: HT29 colon
[42] = system: ACHN renal
[43] = system: HOP-92 NSCLC
[44] = system: HCC-2998 colon
[45] = system: LOX IMVI melanoma
[46] = system: COLO 205 colon
[47] = system: T-47D breast
[48] = system: HOP-62 NSCLC
[49] = system: SK-MEL-2 melanoma
[50] = system: K-562 leukemia
[51] = system: HCT-15 colon
[52] = system: UO-31 renal
[53] = system: SK-MEL-5 melanoma
[54] = system: MOLT-4 leukemia
[55] = system: SN12C renal
[56] = system: EKVX NSCLC
[57] = system: DU-145 prostate
[58] = system: A549 NSCLC
[59] = system: PC-3 prostate
[60] = system: RPMI-8226 leukemia

O=[N+]([O-])c1ccc(N/N=C2/CCCC/C(=N\Nc3ccc([N+](=O)[O-])cc3[N+](=O)[O-])CS(=O)(=O)C2)c([N+](=O)[O-])c1
GI50 [1]: 0.316 µM | TGI [1]: 26.1 µM | GI50 [2]: 23.1 µM | GI50 [3]: 23.5 µM | GI50 [4]: > 100 µM | TGI [4]: > 100 µM | GI50 [5]: 17.9 µM | GI50 [6]: 16.7 µM | TGI [6]: 27.9 µM | GI50 [7]: 18.6 µM | GI50 [8]: 29.5 µM | GI50 [9]: > 100 µM | TGI [9]: > 100 µM | GI50 [10]: > 100 µM | TGI [10]: > 100 µM | GI50 [11]: 29.5 µM | GI50 [12]: 17.1 µM | TGI [12]: 31.4 µM | GI50 [13]: 13 µM | GI50 [14]: > 100 µM | TGI [14]: > 100 µM | GI50 [15]: 34.5 µM | TGI [15]: > 100 µM | GI50 [16]: 93.8 µM | TGI [16]: > 100 µM | GI50 [17]: 26.4 µM | GI50 [18]: > 100 µM | TGI [18]: > 100 µM | GI50 [19]: 21.8 µM | GI50 [20]: 78.7 µM | TGI [20]: > 100 µM | GI50 [21]: 21.3 µM | GI50 [22]: > 100 µM | TGI [22]: > 100 µM | GI50 [23]: > 100 µM | TGI [23]: > 100 µM | GI50 [24]: 80.9 µM | TGI [24]: > 100 µM

CC(O)COc1ccc([As](=O)(O)O)cc1N (stereo unspecified)
GI50 [25]: > 100 µM | TGI [25]: > 100 µM | GI50 [26]: > 100 µM | TGI [26]: > 100 µM | GI50 [27]: > 100 µM | TGI [27]: > 100 µM | GI50 [28]: > 100 µM | TGI [28]: > 100 µM | GI50 [1]: > 100 µM | TGI [1]: > 100 µM | GI50 [2]: > 100 µM | TGI [2]: > 100 µM | GI50 [29]: > 100 µM | TGI [29]: > 100 µM | GI50 [30]: > 100 µM | TGI [30]: > 100 µM | GI50 [31]: > 100 µM | TGI [31]: > 100 µM | GI50 [32]: > 100 µM | TGI [32]: > 100 µM | GI50 [3]: > 100 µM | TGI [3]: > 100 µM | GI50 [33]: > 100 µM | TGI [33]: > 100 µM | GI50 [34]: > 100 µM | TGI [34]: > 100 µM | GI50 [35]: > 100 µM | TGI [35]: > 100 µM | GI50 [36]: > 100 µM | TGI [36]: > 100 µM | GI50 [37]: > 100 µM | TGI [37]: > 100 µM | GI50 [4]: > 100 µM | TGI [4]: > 100 µM | GI50 [38]: > 100 µM | TGI [38]: > 100 µM | GI50 [39]: > 100 µM | TGI [39]: > 100 µM | GI50 [40]: > 100 µM | TGI [40]: > 100 µM | GI50 [41]: > 100 µM | TGI [41]: > 100 µM | GI50 [42]: > 100 µM | TGI [42]: > 100 µM | GI50 [5]: > 100 µM | TGI [5]: > 100 µM | GI50 [43]: > 100 µM | TGI [43]: > 100 µM | GI50 [44]: > 100 µM | TGI [44]: > 100 µM | GI50 [45]: > 100 µM | TGI [45]: > 100 µM | GI50 [46]: > 100 µM | TGI [46]: > 100 µM | GI50 [47]: > 100 µM | TGI [47]: > 100 µM | GI50 [6]: > 100 µM | TGI [6]: > 100 µM | GI50 [48]: > 100 µM | TGI [48]: > 100 µM | GI50 [7]: > 100 µM | TGI [7]: > 100 µM | GI50 [8]: > 100 µM | TGI [8]: > 100 µM | GI50 [49]: > 100 µM | TGI [49]: > 100 µM | GI50 [50]: > 100 µM | TGI [50]: > 100 µM | GI50 [51]: > 100 µM | TGI [51]: > 100 µM | GI50 [52]: > 100 µM | TGI [52]: > 100 µM | GI50 [53]: > 100 µM | TGI [53]: > 100 µM | GI50 [10]: > 100 µM | TGI [10]: > 100 µM | GI50 [54]: > 100 µM | TGI [54]: > 100 µM | GI50 [11]: > 100 µM | TGI [11]: > 100 µM | GI50 [55]: > 100 µM | TGI [55]: > 100 µM | GI50 [12]: > 100 µM | TGI [12]: > 100 µM | GI50 [13]: > 100 µM | TGI [13]: > 100 µM | GI50 [14]: > 100 µM | TGI [14]: > 100 µM | GI50 [15]: > 100 µM | TGI [15]: > 100 µM | GI50 [16]: > 100 µM | TGI [16]: > 100 µM | GI50 [17]: > 100 µM | TGI [17]: > 100 µM | GI50 [18]: > 100 µM | TGI [18]: > 100 µM | GI50 [19]: > 100 µM | TGI [19]: > 100 µM | GI50 [56]: > 100 µM | TGI [56]: > 100 µM | GI50 [57]: > 100 µM | TGI [57]: > 100 µM | GI50 [20]: > 100 µM | TGI [20]: > 100 µM | GI50 [58]: > 100 µM | TGI [58]: > 100 µM | GI50 [59]: > 100 µM | TGI [59]: > 100 µM | GI50 [21]: > 100 µM | TGI [21]: > 100 µM | GI50 [60]: > 100 µM | TGI [60]: > 100 µM | GI50 [22]: > 100 µM | TGI [22]: > 100 µM | GI50 [23]: > 100 µM | TGI [23]: > 100 µM | GI50 [24]: > 100 µM | TGI [24]: > 100 µM
